{
  "source": "patent US9079970B2",
  "about": "“Methods and compositions for specific modulation of MCL-1” (Dana Farber Cancer Institute, Inc., priority 2008, dated 2015)",
  "key": {"[1]": {"experiment": "Circular dichroism, percent α-helicity", "type": "physicochemical", "protocol": "To evaluate secondary structure improvements of hydrocarbon-stapled peptides, circular dichroism (CD) spectra were recorded and analyzed on an Aviv Biomedical spectrometer (model 410), as has been previously reported (Walensky et al Science, 2004; Bird et al. Methods in Enzymology, 2008). […] The α-helicity of MCL-1 targeting SAHBs were compared to their unmodified counterparts by CD. A total of five scans from 190-260 nm in 0.5 nm increments with 0.5 sec averaging time were collectively averaged to obtain each spectrum using a 1 mm path length cell. The target peptide concentration for CD studies was 25-50 μM in 50 mM potassium phosphate (pH 7.5) or Milli-Q deionized water, and exact concentrations were confirmed by quantitative amino acid analysis of two CD sample dilutions. The CD spectra were initially plotted as wavelength versus millidegree. Once the precise peptide concentration was confirmed, the mean residue ellipticity [θ], in units of degree·cm^2·dmol^−1·residue^−1, was derived from the equation, [θ]=millidegree/molar concentration/number of amino acid residues. After conversion to mean residue ellipticity, percent α-helicity was calculated using the equation, % helicity=100×[θ]222/^max[θ]222, where ^max[θ]222=−40,000×[1−(2.5/number of amino acid residues). […]"}, "[2]": {"tested_on": "Bak−/− mitochondria", "experiment": "Cytochrome c release assay, Bak−/− mitochondria", "type": "biochemical, mouse", "conditions": "with BID BH3", "protocol": "(§1) Mouse liver mitochondria (0.5 mg/mL) were isolated and cytochrome c release assays performed according to established methods (Pitter et al., Methods Enzymol 446, 387 (2008). Briefly, isolated mitochondria were incubated at 37° C. for 40 minutes in the presence of a serial dilution of MCL-1 SAHBs, singly or in combination with BID BH3 peptide. The pellet and supernatant fractions were isolated by centifugation, and cytochrome c was quantitated using a colorimetric ELISA assay (R&D Systems). Percent cytochrome c released into the supernatant (% cytocsup) from releasable mitochondrial pools was calculated according to the following equation: % cytoc=[(cytocsup-cytocbackgr)/(cytoctotal-cytocbackgr)]*100, where background release represents cytochrome c detected in the supernatant of vehicle-treated (1% DMSO) samples and total release represents cytochrome c measured in 1% Triton-X 100 treated samples.\n(§2) Three in vitro assays were used to verify the capacity of selective MCL-1-targeting SAHBs to sensitize mitochondrial apoptosis. […] FP (mP units) was measured at equilibrium by microplate reader (e.g., Spectramax) and Ki values calculated by nonlinear regression analysis of dose-response curves using Prism software (Graphpad). […] The relative amount of cytochrome c released into the supernatant was quantified by ELISA assay per the manufacturer's protocol (Roche®). […]"}, "[3]": {"tested_on": "wild-type mouse liver mitochondria (BAK-mediated cytochrome c release)", "experiment": "Cytochrome c release assay, wild-type mouse liver mitochondria", "type": "biochemical", "protocol": "as §1, §2"}, "[4]": {"tested_on": "caspase 3/7 in OPM2 cells", "experiment": "Caspase 3/7 activation assay, OPM2", "type": "cell-based", "conditions": "4 hours", "protocol": "(§3) OPM2 and Jurkat cells (2×10^4 cells) were treated with the indicated agents in Opti-MEM media at 37° C. in a final volume of 50 Caspase 3/7 activation was measured at 4 hours using the ApoONE Caspase 3/7 kit according to the manufacturer's instructions (Promega). For synergy studies with TRAIL and FASL, cells were treated simultaneously with MCL-1 SAHB and the death receptor ligands."}, "[5]": {"tested_on": "OPM2 multiple myeloma cells", "experiment": "Cell viability by MTT assay, OPM2", "type": "cell-based", "conditions": "MTT at 24 hours", "protocol": "OPM2 multiple myeloma cells and Jurkat T-cell leukemia were passaged and maintained in RPMI 1640 medium (Invitrogen) supplemented with 10% fetal bovine serum, 100 U/mL penicillin, 100 μg/mL streptomycin, 2 mM L-glutamine, 50 mM HEPES and 50 μM β-mercaptoethanol. For viability testing, OPM2 and Jurkat cells (4×10^4) were treated with the indicated agents in Opti-MEM media at 37° C. in a final volume of 100 μL. Cell viability was measured at 24 hours by MTT assay, for which cells were incubated with 20 μL thiazolyl blue tetrazolium bromide (5 mg/mL in DPBS) at 37° C. for 4 hours, the precipitate solubilized with 0.1 N HCl isopropanol (100 μL), and absorbance measured at 570 nm and 650 nm."}, "[6]": {"tested_on": "Jurkat T-cell leukemia cells", "experiment": "Cell viability by MTT assay, Jurkat", "type": "cell-based", "conditions": "MTT at 24 hours", "protocol": "For viability testing, OPM2 and Jurkat cells (4×10^4) were treated with the indicated agents in Opti-MEM media at 37° C. in a final volume of 100 μL. Cell viability was measured at 24 hours by MTT assay, for which cells were incubated with 20 μL thiazolyl blue tetrazolium bromide (5 mg/mL in DPBS) at 37° C. for 4 hours, the precipitate solubilized with 0.1 N HCl isopropanol (100 μL), and absorbance measured at 570 nm and 650 nm."}, "[7]": {"tested_on": "caspase 3/7 in Jurkat cells", "experiment": "Caspase 3/7 activation assay, Jurkat", "type": "cell-based", "conditions": "combined with low dose TRAIL and FasL, 4 hours", "protocol": "as §3"}, "[8]": {"tested_on": "Jurkat cells", "experiment": "Live confocal microscopy of cellular uptake and localization", "type": "cell-based", "conditions": "FITC-SAHB", "protocol": "In addition to FACS-based analysis, live confocal microscopy was used to visualize cellular uptake and intracellular localization of MCL-1 targeting SAHBs. For live confocal microscopy, Jurkat cells were incubated with FITC-SAHB and live cell organelle markers (e.g., dextran to label pinosomes, Mitotracker to label mitochondria). At defined time points (e.g., 4, 8, 12, and 24 hours), cells were washed twice with PBS, resuspended in PBS, wet mounted and imaged by confocal microscopy. […] Cell permeability and intracellular targeting can also be optimized through site-directed mutagenesis; for example, converting negatively charged residues to neutral or positively charged residues (e.g. SEQ ID NO: 39) can enhance cellular uptake as was previously reported (Bernal et al JACS, 2007)."}, "[9]": {"tested_on": "recombinant BCL-wΔC", "experiment": "Fluorescence polarization direct binding of FITC-SAHBs to BCL-wΔC", "conditions": "FPA", "protocol": "Binding assays were performed as previously described (Pitter et al., Methods Enzymol 446, 387 (2008). Briefly, FITC-SAHB (50 nM) was added to serial dilutions of FPLC-purified recombinant protein in binding buffer (50 mM Tris, 100 mM NaCl, pH 8.0). For competition assays, serial dilutions of acetylated MCL-1 SAHBs were mixed with FITC-BAK SAHB (25 nM), followed by addition of MCL-1ΔNΔC (100 nM) diluted in binding buffer (50 mM Tris, 100 mM NaCl, pH 8.0). Multiwell plates were incubated in the dark at room temperature until equilibrium was reached and fluorescence polarization (mP units) was measured by microplate reader (SpectraMax, Molecular Devices). For direct binding experiments, dissociation constants (KD) were calculated by nonlinear regression analysis of dose-response curves using Prism software (Graphpad). For competition experiments, Ki values were determined by nonlinear regression analysis of dose-response curves using a one-site competition model.\nCompounds that bound MCL-1 with high affinity were analyzed for MCL-1 selectivity by measuring SAHB affinities for recombinant BCL-XLΔC, BCL-WΔC and BFL-1/A1ΔC (FIG. 8B). […] The purified proteins were incubated with FITC-SAHBs, and binding affinities were analyzed by fluorescence polarization assay as described above. […]"}},
  "note": "Entries after “also recorded” stand apart in the source; their conditions may differ.",
  "data": [
    {"compound": "CC(C)C[C@H](NC(=O)[C@H](C)NC(=O)[C@@H](N)CCCCN)C(=O)N[C@@H](CCC(=O)O)C(=O)N[C@H](C(=O)N[C@@H](CC(C)C)C(=O)N[C@@H](CCCNC(=N)N)C(=O)N[C@@H](CCCNC(=N)N)C(=O)N[C@H](C(=O)NCC(=O)N[C@@H](CC(=O)O)C(=O)NCC(=O)N[C@H](C(=O)N[C@@]1(C)CCC/C=C\\CCC[C@@](C)(C(=O)N[C@H](C(=O)N[C@@H](C)C(=O)N[C@@H](Cc2ccccc2)C(N)=O)[C@@H](C)O)NC(=O)[C@H](Cc2c[nH]cn2)NC(=O)[C@H](CC(N)=O)NC(=O)[C@H](CCCNC(=N)N)NC1=O)C(C)C)C(C)C)[C@@H](C)O", "note": "[MCL-1 SAHBD]", "values": [
      {"measurement": "percent α-helical content", "setting": "[1]", "result": 91, "unit": "%"},
      {"measurement": "cytochrome c release from Bak−/− mitochondria", "setting": "[2]", "result": "no release was observed"},
      {"measurement": "cytochrome c release by SAHB alone", "setting": "[3]; wild-type mitochondria, absence of BID BH3", "result": "no effect on the mitochondria in the absence of BID BH3"},
      {"measurement": "sensitization of BID BH3-induced cytochrome c release", "setting": "[3]; wild-type mouse liver mitochondria, with BID BH3", "result": "dose-responsive enhancement of BAK-mediated cytochrome c release; also recorded: dose-responsively sensitizes BID BH3-induced and BAK-dependent mitochondrial apoptosis"},
      {"measurement": "caspase 3/7 activation in OPM2 cells with FasL", "setting": "[4]; combined with low dose FasL", "result": "but not FasL"},
      {"measurement": "caspase 3/7 activation in OPM2 cells with TRAIL", "setting": "[4]; combined with low dose TRAIL", "result": "dose-responsive activation of caspase 3/7"},
      {"measurement": "OPM2 cell viability, single agent", "setting": "[5]", "result": "no effect on cell viability even at 40 μM dosing"},
      {"measurement": "sensitization of OPM2 cells to FasL", "setting": "[5]; combined with low dose FasL", "result": "no effect on OPM2 cells exposed to FasL"},
      {"measurement": "sensitization of OPM2 cells to TRAIL", "setting": "[5]; combined with low dose TRAIL", "result": "selectively sensitized OPM2 cells to TRAIL; also recorded: dose-responsive and caspase-dependent sensitization"},
      {"measurement": "Jurkat cell viability, single agent", "setting": "[6]", "result": "no effect on cell viability even at 40 μM dosing"},
      {"measurement": "sensitization of Jurkat cells to FasL", "setting": "[6]; combined with low dose FasL", "result": "dose-responsively sensitized; also recorded: dose-responsive and caspase-dependent sensitization"},
      {"measurement": "sensitization of Jurkat cells to TRAIL", "setting": "[6]; combined with low dose TRAIL", "result": "dose-responsively sensitized; also recorded: dose-responsive and caspase-dependent sensitization"},
      {"measurement": "caspase 3/7 activation in Jurkat cells", "setting": "[7]", "result": "dose-responsive activation of caspase 3/7"}
    ]},
    {"compound": "CC(C)C[C@H](NC(=O)[C@H](C)NC(=O)[C@@H](N)CCCCN)C(=O)N[C@@H](CCC(=O)O)C(=O)N[C@H](C(=O)N[C@@H](CC(C)C)C(=O)N[C@@H](CCCNC(=N)N)C(=O)N[C@@]1(C)CCCC=CCCC[C@@](C)(C(=O)N[C@H](C(=O)N[C@@H](CCC(N)=O)C(=O)N[C@@H](CCCNC(=N)N)C(=O)N[C@@H](CC(N)=O)C(=O)N[C@@H](Cc2c[nH]cn2)C(=O)N[C@@H](CCC(=O)O)C(=O)N[C@H](C(=O)N[C@@H](C)C(=O)N[C@@H](Cc2ccccc2)C(N)=O)[C@@H](C)O)C(C)C)NC(=O)[C@H](CC(=O)O)NC(=O)CNC(=O)[C@H](C(C)C)NC1=O)[C@@H](C)O", "note": "[MCL-1 SAHB]", "values": [
      {"measurement": "cellular uptake and intracellular localization", "setting": "[8]", "result": "striking fluorescence of pinosomes at early time points and subsequent colocalization with Mitotracker"},
      {"measurement": "BCL-w binding", "setting": "[9]", "result": "did not engage"}
    ]}
  ]
}
